For this assay, the target named is Tryptophan 2,3-dioxygenase (Homo sapiens, UniProt P48775).

Sequences of proteins named here, by UniProt entry; tags and fusion partners are left off. A change or cut given only in a name is not applied to a line headed by its entry.
UniProt P48775: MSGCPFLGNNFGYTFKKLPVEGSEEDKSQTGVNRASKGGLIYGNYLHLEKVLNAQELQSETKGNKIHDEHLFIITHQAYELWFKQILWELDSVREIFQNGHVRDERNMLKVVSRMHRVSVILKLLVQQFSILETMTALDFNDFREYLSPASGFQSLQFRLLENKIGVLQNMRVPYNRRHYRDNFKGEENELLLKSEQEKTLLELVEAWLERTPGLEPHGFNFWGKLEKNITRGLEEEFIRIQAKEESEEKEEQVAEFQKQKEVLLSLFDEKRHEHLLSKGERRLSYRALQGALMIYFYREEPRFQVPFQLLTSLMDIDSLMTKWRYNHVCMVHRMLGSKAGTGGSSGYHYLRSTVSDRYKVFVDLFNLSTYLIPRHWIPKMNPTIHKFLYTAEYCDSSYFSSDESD

As a reminder, the IC50 is the point on the concentration scale where inhibition reaches its midpoint. Read a low IC50 as greater potency in that assay.

The compound `Fc1ccc2c(/C=C/c3cccnc3)c[nH]c2c1` showed a concentration for half-maximal inhibition (IC50) of 937 nM.

These data come from ChEMBL document CHEMBL4619726, “Synthesis of novel tryptanthrin derivatives as dual inhibitors of indoleamine 2,3-dioxygenase 1 and tryptophan 2,3-dioxygenase” (Bioorg Med Chem Lett, 2020).
